From paper PMC4707509, “TSPO ligand residence time: a new parameter to predict compound neurosteroidogenic efficacy” (Scientific Reports, 2016) come the findings set out here.

For the assay, the target named is T1, TSPO (Rattus norvegicus, UniProt P16257).
T1 construct: Membranes from rat kidneys were prepared as described previously; from tissue; host or cells: rat kidney membranes
The assay is described as follows: Simplified (one-concentration) competition kinetic association assay. Type of assay: binding. As to conditions: unlabeled ligand at three-fold Ki only. Here is the method:
The unlabeled TSPO ligand kinetic parameters were assessed using the theoretical model of Motulsky and Mahan[32]. Unlike methods in which one compound is pre-equilibrated with the receptor, this approach involves the simultaneous addition of both radioligand and competitor to receptor preparation, so that at t = 0 all receptors are unoccupied. […] The degree of bound to TSPO was assessed at multiple time points by filtration harvesting and liquid scintillation counting, as above described. […] For ‘simplified’ competition kinetic association assays, the experiments were performed using concentration of unlabeled TSPO ligands corresponding to three-fold their Ki.
Association and dissociation rates for unlabeled TSPO ligands were calculated by fitting the data in the competition association model using the ‘kinetics of competitive binding’ assay, defining the amount of radioligand bound to receptor ([RL]) as a function of time[32]: […]
As for `CCCN(CCC)C(=O)C(=O)c1c(-c2ccccc2)[nH]c2ccccc12` [PIGA719], the koff is 0.00157 s⁻¹ and the kon is 132000 M⁻¹ s⁻¹.

For `CCCCCCN(CCCCCC)C(=O)C(=O)c1c(-c2ccc(C(=O)O)cc2)[nH]c2ccccc12` [PIGA1214], the koff is 0.0005 s⁻¹ and the kon was 1510 M⁻¹ s⁻¹.

In turn, `CCN(Cc1ccccc1)C(=O)C(=O)c1c(-c2ccc(Cl)cc2)[nH]c2ccc(Cl)cc12` [PIGA823] had a koff of 0.000133 s⁻¹ and a kon of 71700 M⁻¹ s⁻¹.

Turning to `CCCCCCN(CCCCCC)C(=O)C(=O)c1c(-c2ccccc2)[nH]c2ccccc12` [PIGA720], the koff was 0.00065 s⁻¹ and the kon was 363000 M⁻¹ s⁻¹.
